The Ki is a measure of affinity in units of concentration, obtained from inhibition or displacement.

Protein sequences, listed by entry. Tags and fused reporters are not part of them.
UniProt P50406, whole entry: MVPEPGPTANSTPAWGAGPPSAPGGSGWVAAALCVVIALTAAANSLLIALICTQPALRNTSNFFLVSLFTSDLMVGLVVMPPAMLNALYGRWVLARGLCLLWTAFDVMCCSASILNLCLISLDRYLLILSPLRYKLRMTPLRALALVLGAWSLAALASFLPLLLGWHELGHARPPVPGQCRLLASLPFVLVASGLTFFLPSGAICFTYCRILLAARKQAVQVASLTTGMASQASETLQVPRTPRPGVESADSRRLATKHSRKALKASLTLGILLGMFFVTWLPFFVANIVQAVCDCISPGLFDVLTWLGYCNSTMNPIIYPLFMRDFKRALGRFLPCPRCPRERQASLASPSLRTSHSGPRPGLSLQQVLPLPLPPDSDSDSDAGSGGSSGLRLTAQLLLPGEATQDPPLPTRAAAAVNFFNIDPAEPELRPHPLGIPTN

The assay deals with human cloned 5-HT6 receptors (Homo sapiens, UniProt P50406). Put plainly: 5-HT6 binding affinity, [3H]-LSD displacement. The settings on record: read-out: 5-HT6 Binding Ki; membranes of Hela cells expressing human cloned 5-HT6 receptors; [3H]-LSD 3.0 nM; 120 min, room temperature.

Consider `CN(C)CCc1cn(S(=O)(=O)c2ccc(Cl)s2)c2ccsc12`, for which the Ki came to 1.6 nM.

For `CN(C)CCc1cn(S(=O)(=O)c2ccc3ccccc3c2)c2ccsc12`, the Ki is 3.9 nM.

Consider `CN(C)CCc1cn(S(=O)(=O)c2cnc3sccn23)c2ccsc12`, for which the Ki came to 0.3 nM.

`CN(C)CCc1cn(S(=O)(=O)c2cccc(Cl)c2)c2ccsc12`: the inhibition constant Ki turned out to be 1.3 nM.

Consider `CN(C)CCc1cn(S(=O)(=O)c2ccccc2Cl)c2ccsc12`, for which the Ki stood at 1.9 nM.

(Values after patent US7220756B2, “N-sulfonylheterocyclopyrrolyl-alkylamine compounds as 5-hydroxytryptamine-6 ligands” (Wyeth, priority 2003, dated 2007).)
